## Yeast mating assay 2: variants of the scFv Ab-91

Reference: Engelhart et al. 2022, doi:10.1038/s41597-022-01779-4. File: FLAb, binding data.

Target: peptide PDVDLGDISGINAS, taken from heptad repeat 2 (HR2) of SARS-CoV-2 spike.

Parent scFv Ab-91: VL joined to VH by a (GGGGS)3 linker. Changes lie in the heavy chain CDRs alone.
VL: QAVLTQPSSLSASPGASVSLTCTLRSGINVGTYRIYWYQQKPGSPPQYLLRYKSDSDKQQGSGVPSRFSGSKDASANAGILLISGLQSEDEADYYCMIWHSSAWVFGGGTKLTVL
VH: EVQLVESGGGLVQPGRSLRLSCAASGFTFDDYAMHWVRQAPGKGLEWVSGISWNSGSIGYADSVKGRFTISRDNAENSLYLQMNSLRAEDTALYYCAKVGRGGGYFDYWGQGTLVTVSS

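The starting antibody came from a phage panning campaign against this peptide. In library AAYL51, one, two or three CDR residues were substituted; doubles and triples were drawn at random. The assay is AlphaSeq: two haploid yeast populations carry antibody and antigen on their surface. Mating (16 h, 30 °C) was followed by selection of diploids and sequencing of their barcodes. Scores were corrected for input abundance and mapped to Kd with protein pairs of known affinity run in the same pool. There are three technical replicates.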

Substitutions are numbered in sequence along the VH above, starting at 1 (not Kabat).
The read-out is the apparent dissociation constant on a log10 scale (nM): the lower, the stronger.
Where no diploid with the target was found in that replicate, the entry reads "nd": below detection, most likely a poor binder, though not proof of it.
As a blank, each scFv also met three strains without target: over library AAYL51, 21% of these pairings were detected, typically at 4.54 and seldom below 3.26. Also given: how often the same scFv was detected with the empty control strains, with their mean in brackets.
In this assay the parent's reference entry averaged 1.86; its copy inside this library read 0.88.

changes,"log10 Kd, replicates",control signals
M34R S52A S57F,nd 3.66 nd,0 of 9
D31E D107Q,nd 2.75 3.32,1 of 9 (4.54)
T28C M34H G102D,nd 3.52 nd,1 of 9 (4.78)
F27Y D31Y G59Y,nd nd nd,0 of 9
F29M S52K S63V,nd nd nd,1 of 9 (2.81)
H35F R101E G103M,nd 4.96 nd,3 of 9 (4.76)
G50R G100M F106Y,5.49 nd nd,3 of 9 (4.74)
V99I R101I F106L,1.39 1.32 0.85,4 of 9 (4.93)
H35V G59C S63T,nd nd 5.40,5 of 9 (4.69)
I58Q A61P V99K,nd nd nd,0 of 9
T28G R101P G103C,nd 6.11 nd,1 of 9 (3.47)
D30K Y60E G103N,5.14 nd nd,2 of 9 (4.44)
D31L H35F R101E,nd nd nd,1 of 9 (2.75)
I51T W53E Y60G,5.22 4.92 5.42,4 of 9 (4.45)
G59N V64H D107N,nd nd nd,1 of 9 (5.27)
A61H G103T,1.84 2.33 2.03,1 of 9 (4.77)
S52I V64I Y105H,nd nd nd,0 of 9
F29N H35S D62C,nd nd nd,2 of 9 (2.27)
Y32M D62H R101C,4.78 nd nd,1 of 9 (3.77)
F29S N54I R101P,nd nd nd,1 of 9 (4.01)
K65G R101M,2.69 2.09 1.52,0 of 9
D62S S63H G100C,nd nd nd,1 of 9 (3.67)
S52T K65S D107F,nd nd nd,1 of 9 (4.16)
G26Q S55G G100H,nd nd nd,1 of 9 (4.30)
A33D S52L W53Y,nd nd nd,0 of 9
G26R V64T Y108S,4.07 3.85 nd,2 of 9 (4.71)
S55Y V99A Y108Q,nd 4.03 nd,2 of 9 (3.76)
M34A V64W G104L,nd nd nd,4 of 9 (4.25)
Y32Q K65Y Y108W,nd nd nd,0 of 9
D30W N54P Y60M,nd 4.75 nd,0 of 9
H35K S55K,nd nd nd,0 of 9
W53L S63R V99S,nd nd nd,0 of 9
G26T N54L G56D,nd nd nd,0 of 9
W53K N54I Y105E,nd nd nd,0 of 9
D62Q S63Y,2.36 2.08 1.81,0 of 9
D30G N54G K65I,0.92 0.77 0.31,1 of 9 (4.28)
G59A A61Y V64C,nd nd nd,1 of 9 (3.27)
F29I D30L S52G,3.70 nd nd,1 of 9 (4.33)
F29C D62K R101K,3.64 4.62 3.98,2 of 9 (3.79)
G50Q I58R G103R,nd 5.58 nd,2 of 9 (4.01)
F27D G56L G100T,4.42 6.15 3.20,0 of 9
D31I S55E V99S,nd 4.31 nd,1 of 9 (3.94)

The first 6 variants above that were never detected:

| changes | log10 Kd, replicates | control signals |
|---|---|---|
| F27Y D31Y G59Y | nd nd nd | 0 of 9 |
| F29M S52K S63V | nd nd nd | 1 of 9 (2.81) |
| I58Q A61P V99K | nd nd nd | 0 of 9 |
| D31L H35F R101E | nd nd nd | 1 of 9 (2.75) |
| G59N V64H D107N | nd nd nd | 1 of 9 (5.27) |
| S52I V64I Y105H | nd nd nd | 0 of 9 |